Patent EP4837908A1, “NOVEL SODIUM CHANNEL MODULATOR COMPOUND AND USE THEREOF” (dated 2026)

By UniProt entry, the sequences of proteins in these tests, tags left out.
UniProt Q9Y5Y9, whole entry: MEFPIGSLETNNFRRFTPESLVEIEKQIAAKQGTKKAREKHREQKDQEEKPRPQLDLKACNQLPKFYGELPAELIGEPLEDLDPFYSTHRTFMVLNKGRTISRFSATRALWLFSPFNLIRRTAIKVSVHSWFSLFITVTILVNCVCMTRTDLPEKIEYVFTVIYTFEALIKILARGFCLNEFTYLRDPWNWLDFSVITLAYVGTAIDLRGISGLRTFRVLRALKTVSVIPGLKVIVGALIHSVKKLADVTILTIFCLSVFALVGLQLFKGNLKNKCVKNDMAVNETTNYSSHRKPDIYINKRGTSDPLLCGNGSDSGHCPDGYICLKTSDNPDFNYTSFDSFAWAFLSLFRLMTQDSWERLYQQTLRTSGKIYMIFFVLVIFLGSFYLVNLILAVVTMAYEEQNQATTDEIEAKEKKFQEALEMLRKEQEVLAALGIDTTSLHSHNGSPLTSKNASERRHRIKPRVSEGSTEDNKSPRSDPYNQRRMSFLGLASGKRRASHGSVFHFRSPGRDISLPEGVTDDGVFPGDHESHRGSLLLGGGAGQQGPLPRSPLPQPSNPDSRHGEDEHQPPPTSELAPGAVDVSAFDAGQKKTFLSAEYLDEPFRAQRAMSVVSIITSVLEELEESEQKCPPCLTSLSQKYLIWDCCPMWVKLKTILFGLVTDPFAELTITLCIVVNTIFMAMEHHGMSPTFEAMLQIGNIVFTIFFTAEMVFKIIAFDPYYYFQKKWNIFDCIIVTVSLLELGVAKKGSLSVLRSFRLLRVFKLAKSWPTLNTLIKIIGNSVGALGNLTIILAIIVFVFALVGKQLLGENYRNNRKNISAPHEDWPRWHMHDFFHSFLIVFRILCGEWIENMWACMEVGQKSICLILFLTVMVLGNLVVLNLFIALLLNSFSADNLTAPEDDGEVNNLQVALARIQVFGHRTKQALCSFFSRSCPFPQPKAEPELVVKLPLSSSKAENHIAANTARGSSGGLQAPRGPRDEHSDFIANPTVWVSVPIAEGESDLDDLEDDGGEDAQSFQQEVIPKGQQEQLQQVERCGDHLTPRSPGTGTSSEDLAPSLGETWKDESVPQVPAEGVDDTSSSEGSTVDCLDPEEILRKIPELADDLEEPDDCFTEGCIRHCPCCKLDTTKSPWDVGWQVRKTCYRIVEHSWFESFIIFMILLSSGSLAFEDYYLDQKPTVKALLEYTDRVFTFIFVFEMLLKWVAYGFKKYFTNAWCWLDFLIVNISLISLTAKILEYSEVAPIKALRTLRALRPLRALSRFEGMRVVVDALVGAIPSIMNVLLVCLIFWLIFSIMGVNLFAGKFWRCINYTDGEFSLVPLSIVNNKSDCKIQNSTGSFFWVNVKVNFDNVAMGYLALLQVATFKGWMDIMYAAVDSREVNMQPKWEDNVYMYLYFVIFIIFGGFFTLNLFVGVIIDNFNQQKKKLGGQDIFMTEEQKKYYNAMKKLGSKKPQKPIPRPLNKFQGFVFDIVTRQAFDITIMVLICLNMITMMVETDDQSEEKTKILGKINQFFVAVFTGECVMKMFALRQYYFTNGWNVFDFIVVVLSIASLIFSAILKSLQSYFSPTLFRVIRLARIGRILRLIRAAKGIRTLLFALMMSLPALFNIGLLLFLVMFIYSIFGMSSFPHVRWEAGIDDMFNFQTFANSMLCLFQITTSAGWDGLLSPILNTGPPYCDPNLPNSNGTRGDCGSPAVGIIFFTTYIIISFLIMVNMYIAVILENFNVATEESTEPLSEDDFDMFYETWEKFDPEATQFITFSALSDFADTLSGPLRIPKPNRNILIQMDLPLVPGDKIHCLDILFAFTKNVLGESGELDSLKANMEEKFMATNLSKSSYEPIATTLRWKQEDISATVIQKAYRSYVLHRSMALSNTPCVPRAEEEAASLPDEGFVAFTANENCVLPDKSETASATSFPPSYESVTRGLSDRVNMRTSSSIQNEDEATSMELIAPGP

Assays:
[1] = Liver microsome metabolic stability (human); conditions: Human liver microsome 0.5 mg/mL, test compound 1 µM, NADPH 1 mM
[2] = Pharmacokinetics in rats after administration via gavage; conditions: male SD rats, 0.5 mg/mL at 10 mL/kg; for Half-life t1/2 / Peak time tmax / Residence time MRTinf: plasma
[3] = Liver microsome metabolic stability (monkey); conditions: Monkey liver microsome 0.5 mg/mL, test compound 1 µM, NADPH 1 mM
[4] = Liver microsome metabolic stability (rat); conditions: Rat liver microsome 0.5 mg/mL, test compound 1 µM, NADPH 1 mM
[5] = target: Nav1.8 (Homo sapiens, UniProt Q9Y5Y9)

Row | Structure (SMILES) | Half-life t1/2 [1] [h] | Peak plasma concentration Cmax [2] [ng/mL] | Plasma exposure amount AUC [2] [ng·h/mL] | Half-life t1/2 [2] [h] | Peak time tmax [2] [h] | Residence time MRTinf [2] [h] | Half-life t1/2 [3] [h] | Half-life t1/2 [4] [h] | IC50 [5] [nM]
1 | C[C@H]1[C@@H](c2ccc(F)c(F)c2OCF)[C@H](C(=O)Nc2ccc(C(N)=O)c(C(N)=O)c2)O[C@@]1(C)C(F)(F)F | > 2.42 | 213 | 1986 | 5.16 | 3.33 | 7.66 | > 2.42 | > 2.42 | < 0.5
2 | [2H]C([2H])([2H])Oc1c([C@H]2[C@H](C(=O)Nc3ccc(C(N)=O)c(C(N)=O)c3)O[C@@](C)(C(F)(F)F)[C@H]2C)ccc(F)c1F | > 2.42 | 136 | 1080 | 3.37 | 1.0 | 5.78 | > 2.42 | > 2.42 | < 0.5
3 | C[C@H]1[C@@H](c2ccc(F)c(F)c2OC(F)F)[C@H](C(=O)Nc2ccc(C(N)=O)c(C(N)=O)c2)O[C@@]1(C)C(F)(F)F | > 2.42 | 114 | 1017 | 4.91 | 4.00 | 7.37 | > 2.42 | > 2.42 | < 0.5
4 | COc1c([C@H]2[C@H](C(=O)Nc3ccc(C(N)=O)c(C(N)=O)c3)O[C@@](C)(C(F)(F)F)[C@H]2C)ccc(F)c1F | 1.02 | 111 | 431 | 3.4 | 0.5 | 4.82 | 0.76 | 2.03 | –
